Measured values: US20090202439A1, “Methods for treatment of angiogenesis” (The Johns Hopkins University, priority 2004, published 2009)

Experiments:
[1] = tested on: PECAM-1; assay: PECAM-1 protein expression by Western immunoblot in HUVECs; assay type: cell-based, human; conditions: CC 5.0 μM; GÖ 6850 and 6976 50 nM; BPB 10 μM; MAFP 3.0 μM; compared with vehicle (DMSO)
[2] = tested on: HUVECs; assay: In vitro angiogenesis/tube formation assay in HUVECs; assay type: cell-based, human; conditions: CC 5.0 μM; GÖ 6850 and 6976 50 nM; BPB 10 μM; MAFP 3.0 μM; compared with vehicle (DMSO)

chelerythrinbe chloride
VEGF/LacCer induced PECAM-1 expression [1]: abrogated | VEGF/LacCer induced tube formation [2]: abrogated
